Data on 1 compound can be found in patent US11845726B2.

The nature of the data set: Mouse pharmacokinetic (PK) evaluation of drug metabolism to psilocin.

`CN(C)CCc1c[nH]c2cccc(OC(=O)OCc3ccccc3)c12` [B(II)]: the “administered compound in plasma” value (1 mg/kg oral) was “neither B(II) nor E(VI) were detected in plasma”. Besides, under “oral dosing”, the “psilocin levels, B(II) compared with E(VI)” value is listed as “higher psilocin levels in B(II)-treated mice”. Also, the “stability in plasma” value (plasma) is reported as “comparatively stable in plasma”.
